Reference: PubChem BioAssay AID2100 (National Center for Advancing Translational Sciences (NCATS), 2009)
Where “and” joins values, the source holds several entries; their conditions need not be identical. Equal entries are not always repeated. The entries are a selection whose mix differs from that of the whole data set. Records with an inconclusive call do not appear. Calls of active or inactive are those of the source. Calls follow the shape of the dose curve; as a rule, active = well fitted inhibition curve with a large enough effect; inconclusive = small, poorly fitted or top-dose-only effect, or another doubt; inactive = no such curve, though single readings can be large or run the other way.

target: Lysosomal alpha-glucosidase (Homo sapiens) (UniProt P10253); experiment: qHTS Assay for Inhibitors and Activators of Human alpha-Glucosidase Cleavage of Glycogen; conditions: recombinant GAA, glycogen substrate, Amplex Red glucose oxidase fluorescence; at 76.4 µM (top of the series) unless noted;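 also: 0% = full enzyme reaction and -100% = no-enzyme basal signal; the screen sought inhibitors and activators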
Excerpt: NIH Chemical Genomics Center [NCGC] NIH Molecular Libraries Probe Production Centers Network [MLPCN] MLPCN Grant: R03 MH084841-01 Assay Submitter (PI): Wei Zheng NCGC Assay Overview: Alpha-glucosidase is responsible for the hydrolysis of terminal, non-reducing 1,4-linked alpha-D-glucose residues, which releases alpha-D-glucose. It is a lysosomal hydrolase that is required for the degradation of a small percentage (1-3%) of cellular glycogen in humans. Deficiency of this enzyme results in glycogen-storage disease type II (GSDII), also referred to as Pompe disease, an autosomal recessive disorder. Structurally normal glycogen is accumulated in the lysosomes and cytoplasm in affected patients, primarily in muscle tissues. Excessive glycogen storage within lysosomes may interrupt normal functioning of other organelles and leads to cellular injury. In turn, this leads to enlargement and dysfunction of the entire organ involved (eg: cardiomyopathy and muscle weakness). It has been reported that the improper folding and trafficking of alpha-glucosidase resulting from genetic mutations may account for a significant number of Pompe patients. […] We optimized this alpha-glucosidase assay in 1536-well plate format for identification of novel small molecule inhibitors or activators with structures other than the sugar analogs in order to develop new pharmacological chaperones. Previous assays of alpha-Glucosidase have utilized a non-natural fluorescent substrate to probe enzyme activity. The present assay measures enzyme activity on glycogen using a coupled-assay system to glucose oxidase.
NCGC Assay Protocol Summary: This is an enzyme assay using glycogen from bovine liver (Sigma catalog #: G0885) as the substrate and recombinant human alpha-glucosidase as the enzyme preparation. Upon hydrolysis of the substrate, the glucose product can be detected using the Amplex Red Glucose Oxidase Assay Kit (Invitrogen catalog #: A22189). The product of this reaction can be read with a fluorescence plate reader with an excitation at 573 nm and an emission at 610 nm. Data were normalized to the controls for basal activity (without enzyme) and 100% activity (with enzyme). The AC50 values were determined from concentration-response data modeled with the standard Hill equation. Assay buffer for enzyme reaction: 50 mM citric acid (titrated with potassium phosphate to pH 5.0), 0.01% Tween-20 (pH 5.0 is an optimal condition for this enzyme assay) Assay buffer for Amplex Red reaction: Tris-HCl, pH 7.5 1536-well assay protocol for the alpha-glucosidase assay: (1) Add 2 ul/well alpha-glucosidase enzyme solution (4 nM final) (2) Add 23 nL compounds in DMSO solution. The final titration was 0.7 nM to 77 uM. (3) Add 1 ul of glycogen substrate solution (30 ug) (4) Incubate at 37 C for 40 min (5) Add 2 ul tris-HCl buffer with Amplex Red reagents (6) Incubate 45 min at room temperature. (7) Detect the assay plate in a ViewLux plate reader (PerkinElmer) with Ex=573 nm and Em=610nm. Keywords: Alpha-glucosidase, Pompe Disease, pharmacological chaperone, chaperone therapy, high throughput screening, alpha-glucosidase inhibitor, MLSMR, MLSCN, NIH Roadmap, qHTS and NCGC

SMILES	activity change, negative = inhibition
O=C(OC1CN2CCC1CC2)c1cccc([N+](=O)[O-])c1 (stereo unspecified)	inactive: -12.1%
CCOC(=O)c1ccc(NC(=O)C(C)(CCl)SC)cc1 (stereo unspecified)	inactive: -5.53%
COc1ccc2nc(NP(=O)(c3ccccc3)c3ccccc3)sc2c1	inactive: 2.77%
COc1cc(I)ccc1[As](=O)(O)O	inactive: 2.19%
Cc1c2c(nc3ccccc13)SC(C(Cl)Cl)C2 (stereo unspecified)	inactive: -3.68%
O=C(OC1CN2CCC1CC2)C12CC3CC(CC(C3)C1)C2 (stereo unspecified)	inactive: -3.55%
Cc1cc(=O)[nH]c(N[N+](=O)[O-])n1	inactive: -10.3%
COc1ccc(N/C(=N/P(=O)(N2CCOCC2)N2CCOCC2)N2CCOCC2)cc1	inactive: -4.64%
Cc1ccc(OP(=O)(Nc2ccc([N+](=O)[O-])cn2)Oc2ccc(C)cc2)cc1	inactive: 1.84%
Cc1ccc2nc3c(c(C)c2c1)CC(C(Cl)Cl)S3 (stereo unspecified)	inactive: -2.62%
C[As](=O)(O)c1cccc(C(=O)O)c1	inactive: 5.96%
O=[As](O)(c1ccc(O)cc1)c1ccccc1O	inactive: 0.325%
CCN(CC)C(=S)SC(NC=O)C(Cl)(Cl)Cl (stereo unspecified)	inactive: 1.85%
CC(C)NC(=O)NP(=O)(Oc1ccccc1)Oc1ccccc1	inactive: 9.48%
O=[N+]([O-])c1cc([N+](=O)[O-])c(-c2ccn[nH]2)s1	inactive: 7.13%
ClCCSc1nnc(-c2cccnc2)o1	inactive: -10.4%
CC(C)c1ccc(OP(=O)(Nc2ccccn2)Oc2ccccc2F)cc1 (stereo unspecified)	inactive: -0.242%
CCOP(=O)(Nc1ccccc1)OCC	inactive: 3.43% and inactive: 4.06%
Cc1cc(SC(NC(=O)c2ccc(F)cc2)C(Cl)(Cl)Cl)ncn1 (stereo unspecified)	inactive: -12.1%
Cc1ccc(NP(=O)(Oc2ccccc2F)Oc2ccccc2F)nc1	inactive: 5.08%
O=P(Nc1nc2ccc(Cl)cc2s1)(c1ccccc1)c1ccccc1	inactive: 5.6%
O=C(O)c1ccccc1[As](=O)(O)O	inactive: 1.77%
CC(=O)Nc1ccc([As](=O)(O)O)cc1	inactive: -2.56%
Nc1cccc2ccc([As](=O)(O)O)cc12	inactive: -2.62%
CCN(N=Nc1nonc1N)c1nonc1N	inactive: -1.22%
O=[N+]([O-])c1cc([N+](=O)[O-])c(CCN2CCOCC2)c([N+](=O)[O-])c1	inactive: -10.4%

SMILES	activity change, negative = inhibition
Clc1ccc(Cl)c(NC2=NCC(CBr)S2)c1 (stereo unspecified)	inactive: -11.8%
CN1CCCC(OC(=O)C(c2ccccc2)c2ccccc2)C1 (stereo unspecified)	inactive: 5.37%
COc1ccccc1OP(=O)(Nc1ccc(C)cn1)Oc1ccccc1OC	inactive: -3.63%
Cc1ccc(OP(=O)(Nc2nccs2)Oc2ccc(C)cc2)cc1	inactive: -4.99%
Cc1ccc(N/C(=N/P(=O)(N2CCOCC2)N2CCOCC2)N2CCOCC2)cc1	inactive: 6.61%
NC(=O)c1cc([N+](=O)[O-])cc([N+](=O)[O-])c1N	inactive: 4.7%
Oc1ccccc1CNc1ccccn1	inactive: 0.252%
Cc1c2non([O-])c-2c(C)[n+](=O)[n+]1[O-]	inactive: 17.9%
CC(C)CC(=O)NC(Sc1ccc(Cl)cc1)C(Cl)(Cl)Cl (stereo unspecified)	inactive: -5.26%
Nc1cc(N)c2nonc2c1[N+](=O)[O-]	inactive: -3.53%
Cc1ccc(NP(=O)(Oc2ccccc2)Oc2ccccc2)nc1	inactive: 7.97%
CCc1nc2c(n1)c1c(non1O)c1c2no[n+]1[O-]	inactive: 6.56%
O=[N+]([O-])c1cc([N+](=O)[O-])c(CCNc2ccccc2)c([N+](=O)[O-])c1	inactive: -10%
O=[N+]([O-])c1cccc2n[nH]nc12	inactive: 1.04%
CC(=O)N1C2C3N(C(C)=O)C1C1N(C(C)=O)C(C(N1C(C)=O)N3C(C)=O)N2C(C)=O	inactive: 3.41%
COc1ccc(C2=NCC(CBr)S2)cc1 (stereo unspecified)	inactive: 8.25%
CC1CCN(C(=O)Oc2c(Cl)cc(Cl)c3cccnc23)CC1	inactive: 3.2%
CC(C)=N/N=C(\N)N[N+](=O)[O-]	inactive: 20.2%
CN(C)C(=O)OCCc1n(C)cc[n+]1C	inactive: -11.2%
CCN(/C(=N/P(=O)(N1CCOCC1)N1CCOCC1)N1CCOCC1)c1ccc(OC)cc1	inactive: -1.94%
Nc1ccc([As](=O)(O)c2ccc(N)cc2)cc1	inactive: 6.69%
C[N+]1=C2C=CC=CC=C2SC12C([N+](=O)[O-])=CC([N+](=O)[O-])=C[C-]2[N+](=O)[O-] (stereo unspecified)	inactive: -7.88%
O=C(O)CNc1ccc([As](=O)(O)O)cc1	inactive: 2.44%
O=[N+]([O-])c1cccc(NC2=NCC(CBr)S2)c1 (stereo unspecified)	inactive: 5.42%
O=[N+]([O-])c1ncn(CCn2ncnc2[N+](=O)[O-])n1	inactive: 3.23%
